Test results taken from patent publication US11485758B2, “Bi-terminal pegylated integrin-binding peptides and methods of use thereof” (The Regents of the University of California, priority 2014, dated 2022).

Key:
[1] = test system: integrin αvβ6-expressing DX3puroβ6 cell line; experiment: Cell binding and internalization of radiotracers, DX3puroβ6 cells; assay type: cell-based, human
[2] = test system: αvβ6-negative DX3puro control cell line; experiment: Cell binding and internalization of radiotracers, DX3puro control cells; assay type: cell-based, human
[3] = Biodistribution in paired DX3puroβ6/DX3puro xenograft mouse model: organs, urine, blood; assay type: in vivo, mice; details: athymic nu/nu, kidney, total radioactivity

SMILES | Binding to DX3puroβ6 cells (fraction of total radioactivity) ([1]; 60 min incubation) [%] | Internalized share of bound radioactivity, DX3puroβ6 cells ([1]; of bound radioactivity) [%] | Binding and internalization in DX3puro control, in words [2] | tissue uptake at 4 h [3] [%ID/g]
CC(C)C[C@H](NC(=O)[C@H](CC(=O)O)NC(=O)CNC(=O)[C@H](CCCNC(=N)N)NC(=O)[C@H](CC(C)C)NC(=O)[C@H](CC(N)=O)NC(=O)[C@@H]1CCCN1C(=O)[C@@H](NC(=O)[C@H](C)NC(=O)[C@H](CC(N)=O)NC(=O)CCOCCOCCOCCOCCOCCOCCOCCOCCOCCOCCOCCOCCOCCOCCOCCOCCOCCOCCOCCOCCOCCOCCOCCOCCOCCOCCOCCOCCNC(=O)[C@H](CCC(=O)O)NC(=O)[C@H](CCCCNC(=O)CCCc1ccc(I)cc1)NC(=O)c1ccc(F)cc1)C(C)C)C(=O)N[C@@H](CCC(N)=O)C(=O)N[C@H](C(=O)N[C@@H](CC(C)C)C(=O)N[C@@H](C)C(=O)N[C@@H](CCC(N)=O)C(=O)N[C@@H](CCCCN)C(=O)N[C@H](C(=O)N[C@@H](C)C(=O)N[C@@H](CCCNC(=N)N)C(=O)N[C@H](C(=O)NCCOCCOCCOCCOCCOCCOCCOCCOCCOCCOCCOCCOCCOCCOCCOCCOCCOCCOCCOCCOCCOCCOCCOCCOCCOCCOCCOCCOCCC(N)=O)[C@@H](C)O)C(C)C)C(C)C | 52 | 56 | low | –
CC(C)C[C@H](NC(=O)[C@H](CC(=O)O)NC(=O)CNC(=O)[C@H](CCCNC(=N)N)NC(=O)[C@H](CC(C)C)NC(=O)[C@H](CC(N)=O)NC(=O)[C@@H]1CCCN1C(=O)[C@@H](NC(=O)[C@H](C)NC(=O)[C@H](CC(N)=O)NC(=O)CCOCCOCCOCCOCCOCCOCCOCCOCCOCCOCCOCCOCCOCCOCCOCCOCCOCCOCCOCCOCCOCCOCCOCCOCCOCCOCCOCCOCCNC(=O)CN1CCN(CC(=O)O)CCN(CC(=O)O)CC1)C(C)C)C(=O)N[C@@H](CCC(N)=O)C(=O)N[C@H](C(=O)N[C@@H](CC(C)C)C(=O)N[C@@H](C)C(=O)N[C@@H](CCC(N)=O)C(=O)N[C@@H](CCCCN)C(=O)N[C@H](C(=O)N[C@@H](C)C(=O)N[C@@H](CCCNC(=N)N)C(=O)N[C@H](C(N)=O)[C@@H](C)O)C(C)C)C(C)C [Al[^18F]-NOTA-PEG28-A20FMDV2] | – | – | – | 229
